# Like-named read-outs stand apart in the source and are kept apart here.
# Amino acid sequences for entries named in this document (tags omitted).
# UniProt P28223, whole entry: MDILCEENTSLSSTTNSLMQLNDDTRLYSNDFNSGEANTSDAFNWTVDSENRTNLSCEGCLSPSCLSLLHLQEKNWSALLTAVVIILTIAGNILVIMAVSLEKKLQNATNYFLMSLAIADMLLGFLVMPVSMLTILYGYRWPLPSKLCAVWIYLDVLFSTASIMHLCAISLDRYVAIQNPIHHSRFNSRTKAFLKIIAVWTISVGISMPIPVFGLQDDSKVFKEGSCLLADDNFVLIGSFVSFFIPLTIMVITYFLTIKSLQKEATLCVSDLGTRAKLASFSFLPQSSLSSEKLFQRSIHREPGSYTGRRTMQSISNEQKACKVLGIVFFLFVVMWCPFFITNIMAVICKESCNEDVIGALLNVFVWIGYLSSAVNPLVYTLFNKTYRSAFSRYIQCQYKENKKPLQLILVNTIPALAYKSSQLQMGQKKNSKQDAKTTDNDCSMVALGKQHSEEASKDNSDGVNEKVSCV
# UniProt P30994, whole entry: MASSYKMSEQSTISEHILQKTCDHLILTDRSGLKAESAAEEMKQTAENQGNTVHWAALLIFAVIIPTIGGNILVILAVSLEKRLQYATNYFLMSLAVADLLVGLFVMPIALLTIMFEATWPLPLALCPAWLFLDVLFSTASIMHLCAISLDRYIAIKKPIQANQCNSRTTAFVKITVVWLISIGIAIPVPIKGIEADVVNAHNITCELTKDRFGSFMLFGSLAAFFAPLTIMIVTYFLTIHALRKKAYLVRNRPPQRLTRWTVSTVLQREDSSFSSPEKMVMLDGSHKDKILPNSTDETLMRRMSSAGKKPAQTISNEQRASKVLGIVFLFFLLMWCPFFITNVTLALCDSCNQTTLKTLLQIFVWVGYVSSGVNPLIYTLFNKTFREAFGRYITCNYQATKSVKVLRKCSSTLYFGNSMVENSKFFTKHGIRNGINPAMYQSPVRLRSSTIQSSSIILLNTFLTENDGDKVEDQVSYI
# Key:
# Human 5-HT2A = Human 5-HT2A (Homo sapiens, UniProt P28223); test: [125I]DOI radioligand binding, human 5-HT2A
# rat 5-HT2B receptor = rat 5-HT2B receptor (Rattus norvegicus, UniProt P30994); test: biochemical; format: binding; details: [3H]Serotonin, 5-HT2B cells, AVG;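 further: displacement of [3H]5-HT from membranes of suspension cells carrying cloned rat 5-HT2B receptor, incubated 15 min at 37 °C or 2 h at 0 °C, filter-bound radioactivity counted by scintillation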
# [1] = [125I]DOI, AVG, read-out: Ki Human 5-HT2A
compound,measurement,setting,value
CN1CC(C(=O)NC2CCCCC2)CC2c3cccc4[nH]cc(c34)CC21 (centres unmarked),Ki,Human 5-HT2A; Ki Human 5-HT2A,0.9 nM
CC(C)n1cc2c3c(cccc31)C1CC(C(=O)NC3CCCCC3)CN(C)C1C2 (centres unmarked),Ki,Human 5-HT2A; [1],15.1 nM
COc1ccc2[nH]cc(CCN)c2c1,Ki,rat 5-HT2B receptor; read-out: Ki Rat 5-HT2B,9.15 nM
COc1ccc2[nH]cc(CCN(C)C)c2c1,Ki,rat 5-HT2B receptor; Ki Rat 5-HT2B,14.8 nM
CN1CC(C(=O)NC2CCCC2O)CC2c3cccc4[nH]cc(c34)CC21 (centres unmarked),Ki,Human 5-HT2A; [1],0.6 nM

# From US5688807A, “Method for treating 5HT2B receptor related conditions” (Eli Lilly and Company, priority 1995, dated 1997)
